Measured values reported in PMC5177901 (Scientific Reports, 2016).

Biological target: the molecule itself
Test: dynamic light scattering; hTH1 4 uM subunit without liposomes, 10 mM Na-Hepes, 150 mM NaCl, pH 7.0, 37 °C; intensity and volume size distributions

B1: Full-length human tyrosine hydroxylase type 1 (enzyme)
chain: not shown
notes: tyrosine hydroxylase type 1 (hTH1), human, UniProt P07101-3; 497 amino acids per subunit, homotetramer; also called hTH1; isoform 1 of human TH; source: E. coli BL21-CodonPlus, expressed as (His)6-ZZ-TH, tag cut with His-tagged TEV, purified (TALON column); not shown: His6, N-terminal, cleaved; ZZ, N-terminal, cleaved
- stoichiometry N: 4
